Data taken from US20080161320A1, “FUSED BICYCLIC PYRIMIDINES AS PTK INHIBITORS CONTAINING A ZINC BINDING MOIETY” (priority 2006, published 2008).

Sequences of proteins named here, by UniProt entry; tags and fusion partners are left off. Residues count along the entry.
UniProt P04626, 676-1255: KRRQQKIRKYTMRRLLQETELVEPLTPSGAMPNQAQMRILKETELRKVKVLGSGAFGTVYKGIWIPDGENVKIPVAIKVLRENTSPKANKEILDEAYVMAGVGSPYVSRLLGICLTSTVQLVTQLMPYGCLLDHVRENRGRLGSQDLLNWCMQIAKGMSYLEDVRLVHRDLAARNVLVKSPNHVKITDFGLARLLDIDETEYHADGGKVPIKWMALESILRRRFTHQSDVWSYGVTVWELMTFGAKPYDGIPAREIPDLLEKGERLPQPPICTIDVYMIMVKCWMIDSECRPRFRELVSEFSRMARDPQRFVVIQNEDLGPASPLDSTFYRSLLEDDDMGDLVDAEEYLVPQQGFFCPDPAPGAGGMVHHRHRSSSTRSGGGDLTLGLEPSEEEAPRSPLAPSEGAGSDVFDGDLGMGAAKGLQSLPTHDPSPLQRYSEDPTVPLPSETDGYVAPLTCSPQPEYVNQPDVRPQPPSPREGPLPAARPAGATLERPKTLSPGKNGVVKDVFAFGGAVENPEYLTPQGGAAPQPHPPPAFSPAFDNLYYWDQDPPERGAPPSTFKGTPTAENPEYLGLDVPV

Biological target: human HER2/ErbB2 (Homo sapiens, UniProt P04626)
Experiment: HTScan Receptor Kinase Assay, HER2/ErbB2;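 note: europium time-resolved fluorescence detection of anti-phosphotyrosine antibody binding to biotinylated FLT3 (Tyr589) peptide phosphorylated by the kinase, 30 min reaction at room temperature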

With C[C@@H](Nc1ncnc2[nH]c(-c3ccc(CNCCCCCCCC(=O)NO)cc3)cc12)c1ccccc1 [Compound 34, (R)—N-hydroxy-8-(4-(4-(1-phenylethylamino)-7H-pyrrolo[2,3-d]pyrimidin-6-yl)benzylamino)-octanamide] as the compound, how does the IC50 read?
The IC50 was 100 to 1000 nM.
